{
  "source": "patent US6706713B1",
  "about": "“Conjugate for treating inflammatory infectious and/or skin diseases” (priority 1995, dated 2004)",
  "system": "inflammation in a rat's leg",
  "test": "Uptake of radioactively labeled MTX-HSA in an inflammation at the leg of a rat (scintigraphy)",
  "format": "in vivo",
  "details": "leg inflammation produced by injection of sephadex beads, non-inflamed leg as control, heart and liver regions also measured",
  "procedure": "Uptake of Radioactively Labeled MTX-HSA in an Inflammation at the Leg of a Rat\nAn inflammation was produced as usual in a rat's leg by injection of sephadex beads. Then, the rat was given the radioactively labeled conjugate MTX-HSA according to the invention. MTX-HSA was determined scintigraphically in the inflamed leg, the non-inflamed leg (as control) as well as the heart and liver regions.",
  "data": [
    {"substance": "MTX-HSA", "values": [
      {"measurement": "scintigraphic detection of uptake of the conjugate in the inflamed leg", "result": "accumulates in the inflamed leg"}
    ]}
  ]
}
